From patent publication US11529394B2, “Polypeptide conjugates and methods of uses” (BEIJING QL BIOPHARMACEUTICAL CO., LTD., priority 2020, dated 2022)

Amino acid sequences for entries named in this document (tags omitted). Residues count along the entry.
UniProt P02768, 25-609: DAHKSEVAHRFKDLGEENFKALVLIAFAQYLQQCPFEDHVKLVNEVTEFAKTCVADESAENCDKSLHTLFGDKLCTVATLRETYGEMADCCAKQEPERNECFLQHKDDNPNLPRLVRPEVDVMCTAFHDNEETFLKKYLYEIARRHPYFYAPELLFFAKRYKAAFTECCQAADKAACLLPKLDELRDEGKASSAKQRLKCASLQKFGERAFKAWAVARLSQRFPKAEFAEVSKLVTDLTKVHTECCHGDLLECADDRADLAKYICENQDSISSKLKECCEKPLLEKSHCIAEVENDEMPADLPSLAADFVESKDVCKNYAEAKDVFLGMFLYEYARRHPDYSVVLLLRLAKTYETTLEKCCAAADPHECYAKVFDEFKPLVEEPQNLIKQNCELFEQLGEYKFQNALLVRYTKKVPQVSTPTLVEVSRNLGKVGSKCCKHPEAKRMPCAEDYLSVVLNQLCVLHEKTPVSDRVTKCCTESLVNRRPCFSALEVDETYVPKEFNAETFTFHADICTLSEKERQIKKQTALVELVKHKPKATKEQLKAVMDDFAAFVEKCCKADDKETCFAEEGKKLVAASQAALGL

Tests used:
[1] = Pharmacokinetic measurement in mice; assay type: in vivo, C57BL/6 mice; settings: single s.c. 30 nmol/kg
[2] = target: human serum albumin (Homo sapiens, UniProt P02768); experiment: Human serum albumin binding by surface plasmon resonance (Biacore 8K); settings: human serum albumin on CM5 chip, SPR
[3] = Pharmacokinetic measurement in minipigs; settings: for AUCtau: Tau = 336 h
[4] = PK study in cynomolgus monkeys, intravenous; settings: single i.v. 4 nmol/kg

semaglutide showed an AUCtau ([1]; Tau = 24 h) of 0.6147 µM·h, a Cmax ([1]; plasma) of 0.0431 µM and a Tmax ([1]; plasma) of 6.7 h. The Kd [2] was 2.82 µM, the “Cmax (C0 for iv)” value ([3]; i.v. 5 nmol/kg (C0)) was 0.188 µM and the AUCtau ([3]; i.v. 5 nmol/kg) was 6.643 µM·h. The F ([3]; s.c. 5 nmol/kg) was 85%, the Tmax ([3]; s.c. 5 nmol/kg) was 16 h and the “Cmax (C0 for iv)” value ([3]; s.c. 5 nmol/kg (Cmax)) was 0.0549 µM. It also gave an AUCtau ([3]; s.c. 5 nmol/kg) of 5.658 µM·h, a C0 [4] of 0.0851 µM and an AUCtau ([4]; t = […]) of 2.402 µM·h.
